# Assay results published in patent publication US20210261622A1 (Janssen / Centocor, published 2021).
# T1: interleukin-23 receptor (IL-23R) (human, UniProt Q5VWK5 24-629)
# T1 sequence (looked up): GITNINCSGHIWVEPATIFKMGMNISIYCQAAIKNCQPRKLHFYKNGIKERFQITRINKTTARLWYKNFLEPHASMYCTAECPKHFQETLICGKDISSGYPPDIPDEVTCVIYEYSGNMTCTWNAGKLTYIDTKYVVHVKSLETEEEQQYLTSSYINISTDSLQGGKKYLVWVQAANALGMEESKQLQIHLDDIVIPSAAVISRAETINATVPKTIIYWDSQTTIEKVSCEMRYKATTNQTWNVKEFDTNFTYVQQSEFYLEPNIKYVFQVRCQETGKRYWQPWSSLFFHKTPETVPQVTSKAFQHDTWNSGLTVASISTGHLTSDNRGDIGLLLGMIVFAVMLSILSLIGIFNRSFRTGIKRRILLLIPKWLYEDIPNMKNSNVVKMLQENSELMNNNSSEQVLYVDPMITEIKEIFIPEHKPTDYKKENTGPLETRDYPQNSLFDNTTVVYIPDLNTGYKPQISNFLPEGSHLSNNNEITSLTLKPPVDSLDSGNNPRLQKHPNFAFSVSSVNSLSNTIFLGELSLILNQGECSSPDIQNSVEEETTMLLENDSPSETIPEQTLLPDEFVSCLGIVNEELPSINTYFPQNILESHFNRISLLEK
# B1: Peptide No. 47 (SEQ ID NO: 47) (peptide)
# peptide: XNTXKXFXKKNLY
# modifications: Ac-[Pen]-N-T-[W(7-Me)]-[Lys(Ac)]-[Pen]-Phe[4-(2-aminoethoxy)]-[2-Nal]-[a-MeLys]-[Lys(Ac)]-N-[(D)Leu]-[(D)NMeTyr]-NH2; cyclized via Pen-Pen disulfide bond
# B2: Peptide No. 104 (SEQ ID NO: 104) (peptide)
# peptide: XNTXKXFXXENXX
# modifications: Ac-[Pen]-N-T-[W(7-Me)]-[Lys(Ac)]-[Pen]-Phe[4-(2-aminoethoxy)]-[2-Nal]-[THP]-E-N-[3Pal]-[Sarc]-NH2; cyclized via Pen-Pen disulfide bond
# B3: Peptide No. 120 (SEQ ID NO: 120) (peptide)
# peptide: XNTXKXFXKKNXY
# modifications: Ac-[Pen]-N-T-[W(7-Me)]-[Lys(Ac)]-[Pen]-Phe[4-(2-aminoethoxy)]-[2-Nal]-[a-MeLys]-[Lys(Ac)]-N-[3Pal]-[(D)NMeTyr]-NH2; cyclized via Pen-Pen disulfide bond
# B4: Peptide No. 48 (SEQ ID NO: 48) (peptide)
# peptide: XNTXKXFXKKNKY
# modifications: Ac-[Pen]-N-T-[W(7-Me)]-[Lys(Ac)]-[Pen]-Phe[4-(2-aminoethoxy)]-[2-Nal]-[a-MeLys]-[Lys(Ac)]-N-[(D)Lys]-[(D)NMeTyr]-NH2; cyclized via Pen-Pen disulfide bond
# Target: T1, interleukin-23 receptor (IL-23R)
# Assay: cell-based or functional assay
row,"IC50, NK Cell Assay (IFNγ in supernatant of human NK cells stimulated with IL-23 and IL-18) [pM]",Binder
1,1700,B1
2,19.2,B2
3,51.2,B3
4,1010,B4
